Experiment [1] has as its target T1, S1P1 receptor (Homo sapiens, UniProt P21453). As to the kind of experiment: S1P1 β-arrestin recruitment assay in S1P1 overexpressing cell line (DiscoverX), luminescence. Format: cell-based.
Experiment [2] has as its target T1, S1P1 receptor. As to the kind of experiment: S1P1 receptor internalization (endosome formation) assay in S1P1 overexpressing cell line (DiscoverX), luminescence. In kind it is cell-based.

Amino acid sequences for entries named in this document (tags omitted).
UniProt P21453, whole entry: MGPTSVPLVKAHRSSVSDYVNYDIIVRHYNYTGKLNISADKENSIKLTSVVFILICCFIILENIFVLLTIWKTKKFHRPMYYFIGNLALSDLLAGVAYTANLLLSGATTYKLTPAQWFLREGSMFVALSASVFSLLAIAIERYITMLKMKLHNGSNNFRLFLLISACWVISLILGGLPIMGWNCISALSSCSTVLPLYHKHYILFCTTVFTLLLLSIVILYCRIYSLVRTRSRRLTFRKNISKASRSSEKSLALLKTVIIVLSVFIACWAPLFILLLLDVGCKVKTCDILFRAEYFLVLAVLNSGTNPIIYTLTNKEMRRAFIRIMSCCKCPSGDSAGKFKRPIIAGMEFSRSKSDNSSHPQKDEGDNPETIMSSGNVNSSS

For `CC(C)(C)c1ccc(-c2ncc(-c3ccc(CN4CC(C(=O)O)C4)cc3)[se]2)cc1` [Compound 2, Sodium 1-(4-(2-(4-tert-butylphenyl)-1,3-selenazole-5-yl)benzyl)azetidine-3-carboxylate], the EC50 (usually the midpoint of the concentration-response curve) was determined as 2.12 nM at S1P1 receptor [1] and 2.2 nM at S1P1 receptor [2].
Take `CC(C)Oc1ccc(-c2cnc(-c3ccc(CN4CC(C(=O)O)C4)cc3)[se]2)cc1Cl` [Compound 42, Sodium 1-(4-(5-(3-chloro-4-isopropoxyphenyl)-1,3-selenazole-2-yl)benzyl)azetidine-3-carboxylate]: the EC50 on S1P1 receptor [1] was found to be 0.81 nM; at S1P1 receptor [2] it was 0.37 nM.
On the same counts, the results for `CC(C)Oc1ccc(-c2ncc(-c3ccc(CN4CCC(C(=O)O)C4)cc3)[se]2)cc1Cl` (stereo not drawn) [Compound 34, Sodium 1-(4-(2-(3-chloro-4-isopropoxyphenyl)-1,3-selenazole-5-yl)benzyl)pyrrolidine-3-carboxylate] are 1.08 nM and 0.58 nM.
With `CC(C)Oc1ccc(-c2ncc(-c3ccc(CNCC(=O)O)cc3)[se]2)cc1Cl` [Compound 36, Sodium 2-(4-(2-(3-chloro-4-isopropoxyphenyl)-1,3-selenazole-5-yl)benzylamino)acetate], the figures for the EC50 on S1P1 receptor [1] and at S1P1 receptor [2] were 2.03 nM and 2.62 nM, respectively.
The corresponding values for `CC(C)Oc1ccc(-c2ncc(-c3ccc(CNCCC(=O)O)cc3)[se]2)cc1Cl` [Compound 38, Sodium 3-(4-(2-(3-chloro-4-isopropoxyphenyl)-1,3-selenazole-5-yl)benzylamino)propanoate] are 0.58 nM and 0.14 nM.
For the compound `CC(C)(C)c1ccc(-c2ncc(-c3ccc(CN4CCC(C(=O)O)C4)cc3)[se]2)cc1` (stereo not drawn) [Compound 31, Sodium 1-(4-(2-(4-tert-butylphenyl)-1,3-selenazole-5-yl)benzyl)pyrrolidine-3-carboxylate], the EC50 at S1P1 receptor [1] was found to be 2.59 nM; at S1P1 receptor [2] it was 4.21 nM.
The corresponding values for `CC(C)(C)c1ccc(-c2cnc(-c3ccc(CN4CC(C(=O)O)C4)cc3)[se]2)cc1` [Compound 40, Sodium 1-(4-(5-(4-tert-butylphenyl)-1,3-selenazole-2-yl)benzyl)azetidine-3-carboxylate] are 10.6 nM and 23.1 nM.
Consider `CCOc1ccc(-c2ncc(-c3ccc(CN4CC(C(=O)O)C4)cc3)[se]2)cc1Cl` [Compound 15, Sodium 1-(4-(2-(3-chloro-4-ethoxyphenyl)-1,3-selenazole-5-yl)benzyl)azetidine-3-carboxylate], for which the EC50 turned out to be 0.54 nM on S1P1 receptor [1] and 0.27 nM on S1P1 receptor [2].
With `CC(C)Oc1ccc(-c2ncc(-c3ccc(CN4CC(C(=O)O)C4)cc3)[se]2)cc1Cl` [Compound 13, Sodium 1-(4-(2-(3-chloro-4-isopropoxyphenyl)-1,3-selenazole-5-yl)benzyl)azetidine-3-carboxylate], the values for the EC50 on S1P1 receptor [1] and at S1P1 receptor [2] were 0.22 nM and 0.049 nM, respectively.

The values are drawn from EP4567034A1 (Korea Institute of Science and Technology, priority 2022, dated 2024).
